Assay results as given in US20220002314A1 (priority 2018, published 2022).

Protein sequences, listed by entry. Tags and fused reporters are not part of them. Lines headed by an entry give the natural chain unless they say otherwise; changes in a name come on top. Residues count along the entry.
UniProt P54289, 25-1103 limits assumed: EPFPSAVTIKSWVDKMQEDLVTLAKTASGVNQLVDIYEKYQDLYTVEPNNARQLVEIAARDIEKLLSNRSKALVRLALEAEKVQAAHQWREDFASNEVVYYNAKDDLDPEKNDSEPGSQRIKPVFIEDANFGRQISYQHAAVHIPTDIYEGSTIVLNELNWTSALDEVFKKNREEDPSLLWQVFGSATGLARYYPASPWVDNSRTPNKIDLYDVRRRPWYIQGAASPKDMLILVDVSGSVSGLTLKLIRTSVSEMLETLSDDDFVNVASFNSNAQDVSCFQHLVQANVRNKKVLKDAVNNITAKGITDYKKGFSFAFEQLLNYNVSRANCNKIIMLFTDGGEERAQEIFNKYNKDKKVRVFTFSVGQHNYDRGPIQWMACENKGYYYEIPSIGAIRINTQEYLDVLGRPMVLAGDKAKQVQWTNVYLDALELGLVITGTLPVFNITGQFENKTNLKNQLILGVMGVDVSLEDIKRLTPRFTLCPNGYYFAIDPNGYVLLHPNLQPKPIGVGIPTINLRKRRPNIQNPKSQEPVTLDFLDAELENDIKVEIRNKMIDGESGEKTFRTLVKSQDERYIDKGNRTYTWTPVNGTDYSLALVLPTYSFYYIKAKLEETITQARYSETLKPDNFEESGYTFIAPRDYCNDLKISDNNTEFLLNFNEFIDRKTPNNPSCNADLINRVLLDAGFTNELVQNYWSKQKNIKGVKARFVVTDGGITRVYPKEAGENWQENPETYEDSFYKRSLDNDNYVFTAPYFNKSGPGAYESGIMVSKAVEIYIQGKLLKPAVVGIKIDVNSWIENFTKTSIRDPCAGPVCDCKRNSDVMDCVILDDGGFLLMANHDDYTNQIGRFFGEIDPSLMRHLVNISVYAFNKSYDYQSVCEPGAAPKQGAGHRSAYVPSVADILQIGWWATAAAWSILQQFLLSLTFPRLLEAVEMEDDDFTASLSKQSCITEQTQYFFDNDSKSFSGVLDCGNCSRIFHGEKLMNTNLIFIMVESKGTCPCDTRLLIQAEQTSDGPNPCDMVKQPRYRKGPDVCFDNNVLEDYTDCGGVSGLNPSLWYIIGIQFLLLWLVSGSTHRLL

Target: Human α2δ-1 subunit of Cav2.2 calcium channel (Homo sapiens, UniProt P54289)
Conditions: read-out: α2δ-1 binding; binding to α2δ-1 subunit of voltage-gated calcium channels expressed as Ki; + also Ki>5000 nM or inhibition between 1% and 50%

With `CCCC(c1nc2ccc(N(C(=O)CC)C3CCN(C)CC3)cc2c(=O)n1CC)N1C[C@@H](C)N[C@@H](C)C1` (stereo partly shown) the Ki was < 500 nM.

Some compounds may have been tested in ways that are not shown here.
